Data from ChEMBL document CHEMBL1955715 (Bioorg Med Chem Lett, 2012).

The chains behind the UniProt entries cited, without tags or fusion partners.
UniProt Q63380, whole entry: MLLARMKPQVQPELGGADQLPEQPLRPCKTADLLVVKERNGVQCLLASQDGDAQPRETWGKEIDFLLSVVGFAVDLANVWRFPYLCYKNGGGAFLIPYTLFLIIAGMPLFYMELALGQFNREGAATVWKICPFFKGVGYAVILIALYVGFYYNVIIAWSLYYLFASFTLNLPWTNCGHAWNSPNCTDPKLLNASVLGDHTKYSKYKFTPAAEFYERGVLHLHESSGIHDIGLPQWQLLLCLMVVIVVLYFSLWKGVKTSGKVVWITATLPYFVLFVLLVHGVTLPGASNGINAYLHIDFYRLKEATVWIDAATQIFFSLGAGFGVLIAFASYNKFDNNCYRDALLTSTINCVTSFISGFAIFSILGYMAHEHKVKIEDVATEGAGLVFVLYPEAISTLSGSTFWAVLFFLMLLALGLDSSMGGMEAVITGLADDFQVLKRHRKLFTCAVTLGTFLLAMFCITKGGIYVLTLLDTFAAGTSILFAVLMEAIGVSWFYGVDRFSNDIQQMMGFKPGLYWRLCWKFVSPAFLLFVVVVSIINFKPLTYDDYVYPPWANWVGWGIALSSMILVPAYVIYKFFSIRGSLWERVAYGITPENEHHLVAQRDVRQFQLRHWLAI

Target: Transporter (Rattus norvegicus, UniProt Q63380)
Assay: Inhibition of rat NET-mediated norepinephrine reuptake

NC(=O)C[S+]([O-])C(c1ccccc1)c1ccccc1 (stereo unspecified) [MODAFINIL] was tested. Which IC50 did it give?
Its IC50 is 63.9 µM.
